Assay results taken from US20060046981A1, “Anti-nonmelanoma carcinoma compounds, compositions, and methods of use thereof” (GILEAD SCIENCES, INC., priority 2003, published 2006).

Tested on: SiHa cells
Test: Antiproliferation assay (7 days, Sulforhodamine B) in SiHa cells
Type: cell-based, human
Experimental: Antiproliferation assays measure effect of compounds on proliferation of cultured cells. Cells are cultured for 7 days in the presence of various concentrations of compounds. On the 7th day, cells are stained with dye, and intensity of staining (proportional to cell number) is measured by spectrophotometer.
Cells were detached from culture flasks using trypsin, counted, and plated in 96-well culture plates (250-1000 cells per well, depending on cell type). On the next day (defined as day 0), after cells attached to the bottom of plates, 5-fold serial dilutions of compounds were added in duplicate. No compound and 10 μM colchicine (cell division inhibitor) was added to control wells, which would represent 100% proliferation and 0% proliferation, respectively.
Seven days after addition of compounds, culture plates were treated with 10% trichloroacetic acid at 4° C. for 1 hr, then washed with water. […] This generated purple color that was quantified by measuring the absorbance at 510 nm wavelength, using spectrophotometer.
Cells were detached from culture flasks using trypsin, counted, and plated in 96-well culture plates ([…], depending on cell type). […] Intensity of the color (proportional to cell number) was quantified by measuring the absorbance at 510 nm wavelength, using spectrophotometer. […]

SMILES: COc1cc2c(c(N)c1OC)C(=O)/C(=C\c1cc(C)c(O)c(C)c1)C2 [Indanosine, Indanocine]
- Selectivity (HEL/SiHa): 0.27
